Experiment [1] addresses T1, 5-hydroxytryptamine receptor 1A (Homo sapiens, UniProt P08908). The experiment in a line: Ratio for agonist activity at human 5-HT1A receptor expressed in CHO cells by forskolin-stimulated cAMP accumulation assay to agonist activity at human 5-HT1A receptor expressed in CHO cells by beta-arrestin-2 recruitment assay. The experiment is classed as functional, cell-based.

The chains behind the UniProt entries cited, without tags or fusion partners.
UniProt P08908, whole entry: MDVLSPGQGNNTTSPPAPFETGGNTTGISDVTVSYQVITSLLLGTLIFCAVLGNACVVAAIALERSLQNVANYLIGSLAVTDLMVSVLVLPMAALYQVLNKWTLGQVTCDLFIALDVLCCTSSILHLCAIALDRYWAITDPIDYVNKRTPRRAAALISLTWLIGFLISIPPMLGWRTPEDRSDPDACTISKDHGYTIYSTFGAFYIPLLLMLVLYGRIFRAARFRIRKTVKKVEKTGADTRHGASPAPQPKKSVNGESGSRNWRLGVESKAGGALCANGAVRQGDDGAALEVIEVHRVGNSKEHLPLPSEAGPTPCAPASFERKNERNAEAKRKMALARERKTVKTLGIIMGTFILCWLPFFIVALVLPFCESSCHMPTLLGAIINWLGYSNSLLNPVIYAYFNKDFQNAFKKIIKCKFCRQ

For experiment [2], the target named is T1, 5-hydroxytryptamine receptor 1A. The experiment in a line: Agonist activity at human 5-HT1A receptor expressed in CHO cells after 90 mins by beta-arrestin-2 recruitment assay relative to 5-HT. The class given is cell-based. Summed up: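 PathHunter enzyme-complementation β-arrestin-2 recruitment in CHO-K1 cells carrying HTR1A, 10^4 cells/well, plated 24–48 h at 37 °C before use. Compounds from methanol stocks, final 0.1–100 μM, applied for 90 min at 37 °C. Detection reagents then added for 60 min at room temperature, luminescence read. Pooled from 3–4 independent experiments in duplicate, with 5-HT on every plate as reference.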
In general terms: Activated receptors often draw arrestin, which recruitment assays turn into a signal.

Experiment [3] has the same target. The experiment in a line: Agonist activity at human 5-HT1A receptor expressed in CHO cells assessed as inhibition of forskolin-stimulated cAMP accumulation after 15 mins by ELISA relative to 5-HT. The experiment is classed as functional, cell-based. The gist of the method: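 CHO-1A cells (10^4/well) grown 24 h, then 24 h in serum-free DMEM/F-12. Compounds co-incubated with 1 μM forskolin for 15 min at 37 °C in serum-free medium with 5 μM pargyline and 2.5 mM theophylline. Lysis in 1% Triton X-100/0.1 M HCl, cAMP measured by acetylated ELISA. Forskolin alone set as 0%, 5-HT maximum as 100%. Sigmoidal or Gaussian bell-shaped fits.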

Bounds are passed on as bounds.

Usually Emax stands for the size of the effect at its maximum, as opposed to the concentration needed. Take `COc1cccc2c1CCCC2CCCN1CCN(c2ccccn2)CC1` (stereo not drawn): the Ratio in experiment [1] is less than 10. Besides, the values for the Emax in experiment [2] and in experiment [3] were 16.2% and 59.6%, respectively.

These data come from ChEMBL document CHEMBL3593225 (Bioorg Med Chem, 2015).
